C2C12 statin: protects C2C12 myotubes from simvastatin toxicity | ATP luminescence, 48 h; scaled: DMSO 0, geranylgeraniol control 100 | 330,000 compounds, 0.78% hits | rescue of ATP level, % at 7.49 µM;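 active = mean ATP rescue above about 67%, or every replicate alone reaching that limit, limit read from the data, passing the limit was not always enough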;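 note: myotubes were challenged with 10 µM simvastatin during compound exposure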
FN deposit inh: fibronectin deposition inhibition | AH1F fibroblasts, Alexa488-fibronectin deposition fluorescence, overnight | inhibition, % at 12.6 µM | 350,000 compounds, 0.086% hits;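 active = mean inhibition across replicates of 30% or more, regardless of how many single replicates reach that level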;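 note: positive control wells lacked labelled fibronectin entirely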
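material = AH1F fibroblast monolayer depositing Alexa488-labelled fibronectin into matrix | amount = 10000 AH1F cells/well | buffer or medium = DMEM plus 2% serum, read in PBS | incubation = 1 h cell adhesion before compound, then overnight fibronectin incubation | detection = fluorescence at 485 nm excitation, 525 nm emission | evaluation = percent inhibition as loss of matrix-bound fibronectin fluorescence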
iPSC survival up: hiPSC single-cell survival enhancement; 360,000 compounds, 0.044% hits; survival enhancement, % at 20 µM; ATPlite luminescence; 100% = ROCK inhibitor wells, 0% = DMSO; in the data active = survival enhancement above about 18%;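 note: cells exposed to compounds for 16 hours before the ATP read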
PGC1a acetyl inh: PGC1a acetylation modulation, inhibitor mode; U2OS PGC1a acetylation, AlphaScreen anti-acetyl-lysine; with virally co-expressed GCN5 acetyltransferase; inhibition, % at 15.6 µM; 350,000 compounds, 0.17% hits; AID 651687;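 active = every replicate shows inhibition of at least 40%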;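 note: 0% = neutral control wells and 100% = positive control wells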
UUG fidelity: modulators of start codon recognition fidelity in yeast; AID 602363; activity score, % at 18.7 µM; S. cerevisiae UUG-firefly luciferase reporter, luminescence/redox ratio; 0.13% of 350,000 active;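 active = replicate mean at a twofold rise or more, about +100% in these data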;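 note: firefly luciferase made from a UUG start codon reports start codon fidelity; reporter light over untreated wells divided by growth signal over untreated wells; some hits fall short of that in this replicate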
The depositor's hits bear a star; / = not tested or not shown; ! = a repeat was not active. A selection: hits, their analogues and other compounds. The true share with any hit is near 0.91%.

SMILES	C2C12 statin	FN deposit inh	iPSC survival up	PGC1a acetyl inh	UUG fidelity
CS(=O)(=O)N1CCCC(C(=O)NCc2ccccn2)C1 (stereo unspecified)	-9	/	-3	47*	-21
O=S(=O)(N[C@@H]1CCCN(Cc2ccc(OCCO)cc2)C1)c1cc(Cl)ccc1Cl	/	/	/	/	-2
CCNC(=S)NNC(=O)c1csc2ccccc12	-9	/	5	59*	-13
CC(C)NC(=O)Nc1ccc2c(c1)CC(=O)N([C@@H](C)CO)C[C@H](C)[C@@H](CN(C)Cc1ccc3c(c1)OCO3)O2	-3	/	/	0	/
CCN1[C@@H]2c3ccc(/C=C/c4ccccc4)c(=O)n3C[C@H]1[C@H](CO)[C@H]2C(=O)NCc1ccccn1	11	/	/	/	/
CN(CC(=O)Nc1ccc(N2CCOCC2)cc1)CC(=O)Nc1ccccc1C#N	95*	5	5	0	-9
Cc1noc(C)c1S(=O)(=O)N(C)C[C@H]1OCCCC[C@H](C)Oc2ccc(NS(=O)(=O)c3cccs3)cc2C(=O)N([C@H](C)CO)C[C@H]1C	/	/	/	-4	6
CN(c1cccc(NS(=O)(=O)c2cccs2)c1)S(C)(=O)=O	4	11	3	51*	-18
COc1ccc(CNC(=O)C2CCN(S(=O)(=O)c3ccc4c(c3)C(C)(C)C(=O)N4C)CC2)cc1	86*	5	1	0	-16
O=C1C(=C(I)I)c2ccccc2-c2ccccc21	/	55*	-3	/	/
O=C(O)c1cccc2c1C(=O)c1ccccc1-2	8	12	-1	-5	/
CC1=C(C(=O)OC2CCCC2)C(c2ccc(C)o2)C2=C(CC(c3cccs3)CC2=O)N1 (stereo unspecified)	102*	-4	0	-20	-7
CC(=O)Nc1ccc(NC(=O)CSc2nnc(C3CC3)n2C)cc1	127*	-2	4	-7	-4
C[C@@H]1CN([C@@H](C)CO)C(=O)c2cc(NC(=O)Nc3ccccc3)ccc2O[C@H]1CN(C)Cc1ccccc1	2	5	/	-3	1
C#CCOc1c(/C=C\c2nc(O)c([N+](=O)[O-])c(=O)[nH]2)cc(Br)cc1OC	-1	-9	1	-3	0
COC(=O)COc1c(/C=C\c2nc(O)c([N+](=O)[O-])c(=O)[nH]2)cccc1OC	6	1	-1	55*	1
C[C@H](CO)N1C[C@H](C)[C@@H](CN(C)S(=O)(=O)c2cn(C)cn2)Oc2ccc(NS(=O)(=O)c3ccccc3)cc2CC1=O	-15	/	/	9	21
CCOC(=O)C(=O)/C(=C\N(C)C)c1onc(-c2c(F)cccc2Cl)c1C(=O)OC	11	/	20*	11	-10
COC(=O)c1onc(-c2c(Cl)cccc2Cl)c1C(=O)OC	/	2	0	5	-5
Cc1ccc(C(=O)C=CC=Cc2ccccc2)cc1	-5	-3	-1	-6	-21
Cc1ccc(C(=O)C(C(=O)/C=C/c2ccccc2)=C2SCCCS2)cc1	113*	/	10	8	-11
Cc1nc2nc(CSc3nnc(C)s3)cc(=O)n2[nH]1	107*!	1	-1	-9	-14
CC(C)(C)c1ccc(-c2nc(C#N)c(NCCCn3ccnc3)o2)cc1	-26	-5	-1	7	10
N#Cc1nc(-c2ccco2)oc1NCCCn1ccnc1	129*	/	0	-3	/
C[C@@H]1CN([C@H](C)CO)C(=O)Cc2cc(NC(=O)Nc3ccc(F)cc3)ccc2O[C@H]1CN(C)S(=O)(=O)c1ccc(F)cc1	1	/	/	6	-1
COc1ccc2c3c(n(C)c2c1)[C@H](CO)N(Cc1ccccn1)CC31CN(Cc2ccccn2)C1	/	7	/	8	/
CC(C)CCn1c(=O)c2ccccc2n2c(CN3C(=O)NC4(CCC(C)CC4)C3=O)nnc12 (stereo unspecified)	93*	-12	0	-1	-3
CCOCCCNC(=O)CCc1nnc2n(CCC(C)C)c(=O)c3ccccc3n12	-2	7	4	-2	6
COc1ccc(NC(=O)Nc2ccc3c(c2)C(=O)N([C@@H](C)CO)C[C@@H](C)[C@H](CN(C)C)OCCCC[C@H](C)O3)cc1	-4	/	/	-1	-26
CN(C[C@H]1N[C@H](CO)[C@H]1c1ccc(C2=CCCCC2)cc1)S(C)(=O)=O	2	-5	/	-17	-11

Record cards, from the list above. Values in the order: C2C12 statin | FN deposit inh | iPSC survival up | PGC1a acetyl inh | UUG fidelity
C[C@H](CO)N1C[C@H](C)[C@@H](CN(C)S(=O)(=O)c2cn(C)cn2)Oc2ccc(NS(=O)(=O)c3ccccc3)cc2CC1=O is entered as -15 | / | / | 9 | 21
COC(=O)c1onc(-c2c(Cl)cccc2Cl)c1C(=O)OC is entered as / | 2 | 0 | 5 | -5

Additional compounds.
SMILES	C2C12 statin	FN deposit inh	iPSC survival up	PGC1a acetyl inh	UUG fidelity
COc1ccc(N2CN=C3SCC(=O)N3C2)cc1	106*	2	-3	-1	-15
Cc1cc(C)cc(N2CN=C3SCC(=O)N3C2)c1	/	/	-2	5	6
CCOC(=O)c1c(NC(=O)CSc2nnc(C)s2)sc2c1CCC(C)C2 (stereo unspecified)	98*	/	0	-27	-5
C=CCOC(=O)C1=C(C)N=C2SCCC(=O)N2C1c1cccs1 (stereo unspecified)	110*	/	2	-5	-22
COc1ccc(C(=O)C(CN2CCOCC2)c2ccccc2)cc1F (stereo unspecified)	15	/	-4	114*	/
CCCOc1ccc(C(=O)C(c2ccccc2)N2CCOCC2)cc1 (stereo unspecified)	16	/	4	-8	-26
COc1ccc(C(O)C(CN2CCOCC2)c2ccccc2)cc1F (stereo unspecified)	9	-6	1	9	7
CCCOc1ccc(C(=O)C(CN2CCOCC2)c2ccccc2)cc1 (stereo unspecified)	78*	/	-6	33	3
C[C@H]1CN([C@@H](C)CO)S(=O)(=O)c2ccc(-c3ccc(C(=O)N(C)C)cc3)cc2O[C@H]1CN(C)C(=O)Nc1ccccc1F	1	/	/	14	-9
CC1Cc2ccccc2N1C(=O)C1CCN(S(=O)(=O)Cc2ccccc2)CC1 (stereo unspecified)	103*	-3	5	-12	-15
O=C(Nc1cnn(Cc2ccccc2)c1)c1cc2nc(-c3ccco3)cc(C(F)(F)F)n2n1	125*	/	-1	0	-13
O=C(CC1CC1)N1[C@H](CO)[C@H](c2ccccc2)C12CN(S(=O)(=O)c1ccccc1)C2	/	/	/	-6	/
O=C(Nc1ccc(NC(=O)c2ccco2)nc1)c1ccco1	/	/	-1	/	/
O=C(Nc1ccc(NC(=O)c2ccco2)nc1)c1ccccn1	113*	-2	-3	6	-39
C[C@@H]1CN([C@H](C)CO)C(=O)c2cccc(NC(=O)CCCCCC(=O)Nc3ccccc3N)c2O[C@H]1CN(C)Cc1ccc2c(c1)OCO2	/	/	/	-35	/
NC(=O)c1ccc(NC(=O)CCC(=O)c2cccs2)cc1	1	9	62*	/	2
Cc1noc(C)c1NC(=O)Nc1ccc2c(c1)C(=O)N(C)[C@H]1CC[C@@H](CC(=O)N[C@H]3CCN(Cc4ccccc4)C3)O[C@@H]1CO2	6	3	/	2	/
CN(C)C(=O)c1ccc(-c2ccc3c(c2)[C@@H]2[C@@H](CCN2C(=O)c2ccc(F)cc2)[C@H](CO)N3C)cc1	9	31*	/	6	4

4 records picked at random from those above:
SMILES	C2C12 statin	FN deposit inh	iPSC survival up	PGC1a acetyl inh	UUG fidelity
O=C(Nc1ccc(NC(=O)c2ccco2)nc1)c1ccco1	/	/	-1	/	/
C[C@@H]1CN([C@H](C)CO)C(=O)c2cccc(NC(=O)CCCCCC(=O)Nc3ccccc3N)c2O[C@H]1CN(C)Cc1ccc2c(c1)OCO2	/	/	/	-35	/
CN(C)C(=O)c1ccc(-c2ccc3c(c2)[C@@H]2[C@@H](CCN2C(=O)c2ccc(F)cc2)[C@H](CO)N3C)cc1	9	31*	/	6	4
C[C@H]1CN([C@@H](C)CO)S(=O)(=O)c2ccc(-c3ccc(C(=O)N(C)C)cc3)cc2O[C@H]1CN(C)C(=O)Nc1ccccc1F	1	/	/	14	-9

Screening data (PubChem)
